Measured values taken from PubChem BioAssay AID743238 (Broad Institute, 2013).
This is a selection; strong and weak results do not stand in their true shares. Calls of active or inactive are those of the source.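 How the source made its calls: active means mean normalized replicate activation at least 10% and every replicate at or above 10%; inconclusive means only one of the two criteria met; inactive means mean below 10% and not all replicates reach 10%.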

Experiment: Xi reactivation inducers in mouse fibroblasts – imaging, XiGFP fibroblasts, GFP high-content imaging, set 2, primary screen (AID 743238);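 further: 0% = median of on-plate neutral control wells and 100% = ellipticine 6 µM median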
Details: % GFP-positive cells imaging, 3 d, at 7.58 µM, active compounds read high, cells co-treated with 5-aza-dC sensitizer, scaled so ellipticine positive control = 100%
How it was run: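 Material: XiGFP fibroblasts, SV40-immortalized; Buffer or medium: DMEM containing 5-aza-dC; Compound dosing: single point; Times: 3 days compound exposure.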

Compound | activation
CCCN1CCC(Nc2cc(OC)cc(OC)c2)CC1 | inactive: -0.0135%
Cc1cc(N(CCCl)CCCl)ccc1C=O | inactive: 0.178%
C/C(N)=N\P(=O)(Oc1ccccc1)Oc1ccccc1 | inactive: 0.278%
CN(C)C1(CNC(=O)c2cccc(C#N)c2)CCCCC1 | inactive: 0.009%
CC(C)(C)n1nnnc1C(c1cccc2ccccc12)N1CCC(n2c(=O)[nH]c3ccccc32)CC1 (stereo not drawn) | inactive: 0.003%
CC(C)(C)OC(=O)N1CCC(N(C(=O)c2ccccc2)c2ccc(Cl)cc2)CC1 | inactive: -0.083%
N#Cc1ccc(C(=O)NCC2(N3CCCCC3)CCCCC2)cc1 | inactive: 0.082%
COc1cccc(C(c2nnnn2C(C)(C)C)N2CCC(n3c(=O)[nH]c4ccccc43)CC2)c1OC (stereo not drawn) | inactive: 0.181%
CCOC(=O)N1CCC(Nc2ccc(C)cc2)CC1 | inactive: 0.17%
CCCCn1nnnc1C(c1cccc(OC)c1OC)N1CCC(n2c(=O)[nH]c3ccccc32)CC1 (stereo not drawn) | inactive: 0.253%
O=c1[nH]c2ccccc2n1C1CCN(C(c2cccs2)c2nnnn2C2CCCC2)CC1 (stereo not drawn) | inactive: -0.139%
O=C(OC1CN2CCC1CC2)C1c2ccccc2C=Cc2ccccc21 (stereo not drawn) | inactive: 0.448%
O=C(NCC1(N2CCOCC2)CCCCC1)c1cc(Br)ccc1Cl | inactive: 0.0945%
COc1cc(C(=O)NCC2(N3CCOCC3)CCCCC2)cc(OC)c1C | inactive: 2.25%
CCCCn1nnnc1C(c1ccccc1)N1CCC(n2c(=O)[nH]c3ccccc32)CC1 (stereo not drawn) | inactive: 0.168%
O=c1[nH]c2ccccc2n1C1CCN(C(c2ccnc3ccccc23)c2nnnn2C2CCCC2)CC1 (stereo not drawn) | inactive: -0.171%
COc1ccc(C(=O)NCC2(N3CCOCC3)CCCCC2)cc1OC | inactive: 0%
O=c1[nH]c2ccccc2n1C1CCN(C(c2cccs2)c2nnnn2C2CCCCC2)CC1 (stereo not drawn) | inactive: 0.093%
COc1cc(OC)cc(C(=O)NCC2(N3CCOCC3)CCCCC2)c1 | inactive: -0.0065%
COc1cccc(C(=O)N(c2cc(C)cc(C)c2)C2CCN(C(=O)OC(C)(C)C)CC2)c1 | inactive: 0.003%
CN1CCC(Nc2ccc(Cl)cc2)CC1 | inactive: 0.159%
CN1CCC(Nc2ccc(F)c(Cl)c2)CC1 | inactive: 0.173%
CCCOc1ccc(C(=O)NCC2(N(C)C)CCCCC2)cc1 | inactive: -0.004%
O=c1[nH]c2ccccc2n1C1CCN(C(c2cc3ccccc3o2)c2nnnn2C2CCCC2)CC1 (stereo not drawn) | inactive: -0.0805%

Compound | activation
O=C(O)C1(Nc2ccccc2)CCN(Cc2ccccc2)CC1 | inactive: 0.0685%
NN(c1ccccc1)C1CCN(CCc2ccccc2)CC1 | inactive: 0.033%
CC(C)(C)OC(=O)N1CCC(Nc2ccccc2)CC1 | inactive: 0.0305%
CC(C)(C)n1nnnc1C(c1ccnc2ccccc12)N1CCC(n2c(=O)[nH]c3ccccc32)CC1 (stereo not drawn) | inactive: -0.0575%
COc1ccc(C(c2nnnn2C2CCCCC2)N2CCC(n3c(=O)[nH]c4ccccc43)CC2)cc1 (stereo not drawn) | inactive: 0.98%
CCN1CCC(Nc2cccc(F)c2)CC1 | inactive: 0.539%
Cc1ccccc1NC1(C#N)CCN(Cc2ccccc2)CC1 | inactive: 0.435%
Cn1c(=O)[nH]cc(N(CCCl)CCCl)c1=O | inactive: -0.0215%
CN(C)c1ccc(C(=O)NCC2(N3CCCCC3)CCCCC2)cc1 | inactive: 0.232%
O=C(NCC1(N2CCCCC2)CCCCC1)c1ccco1 | inactive: 0.429%
O=c1[nH]c2ccccc2n1C1CCN(C(c2ccnc3ccccc23)c2nnnn2C2CCCCC2)CC1 (stereo not drawn) | inactive: -0.014%
COc1cc(OC)cc(C(=O)NCC2(N3CCCCC3)CCCCC2)c1 | inactive: 0.0195%
CCC(c1nnnn1C1CCCCC1)N1CCC(n2c(=O)[nH]c3ccccc32)CC1 (stereo not drawn) | inactive: 0.397%
CC(=O)N(c1ccccc1)C1CCNCC1 | inactive: 0.011%
COc1cccc(C(c2nnnn2C2CCCCC2)N2CCC(n3c(=O)[nH]c4ccccc43)CC2)c1OC (stereo not drawn) | inactive: 0.141%
Cc1ccc(NC2(C#N)CCN(Cc3ccccc3)CC2)cc1 | inactive: -0.047%
Cc1ccc(C(=O)NCC2(N3CCCCC3)CCCCC2)o1 | inactive: -0.16%
O=c1[nH]c2ccccc2n1C1CCN(C(c2ccccc2)c2nnnn2C2CCCCC2)CC1 (stereo not drawn) | inactive: -0.0985%
O=c1[nH]c2ccccc2n1C1CCN(C(c2cccc3ccccc23)c2nnnn2C2CCCC2)CC1 (stereo not drawn) | inactive: 0.0375%
COc1cc(C(=O)NCC2(N(C)C)CCCCC2)ccc1OC(F)F | inactive: 0.0475%
CCOC(=O)N1CCC(Nc2cccc(C)c2)CC1 | inactive: 0.0115%
CCOc1ccc(C)cc1CN(CCCl)CCCl | inactive: 0.0315%
CC(C)(C)n1nnnc1C(c1ccccc1)N1CCC(n2c(=O)[nH]c3ccccc32)CC1 (stereo not drawn) | inactive: -0.033%
CCOC(=O)N1CCC(Nc2ccc(F)cc2)CC1 | inactive: 0.079%

Compound | activation
O=C(NCC1(N2CCCCC2)CCCCC1)c1ccc(F)cc1 | inactive: 0.502%
O=P1(N(CCCl)CCCl)SCCCS1 | inactive: 0.021%
CCCCOc1ccc(C(=O)NCC2(N3CCOCC3)CCCCC2)cc1 | inactive: 0.148%
Cc1cc(C)cc(N(C(=O)c2ccccc2)C2CCN(C(=O)OC(C)(C)C)CC2)c1 | inactive: -0.036%
O=c1[nH]c2ccccc2n1C1CCN(C(c2ccccc2OC(F)(F)F)c2nnnn2C2CCCCC2)CC1 (stereo not drawn) | inactive: -0.06%
O=C(NCC1(N2CCCCC2)CCCCC1)c1ccc(Cl)nc1 | inactive: -0.223%
CCCCn1nnnc1C(c1ccc(OC)cc1)N1CCC(n2c(=O)[nH]c3ccccc32)CC1 (stereo not drawn) | inactive: 0.0935%
CCOC(=O)N1CCC(Nc2ccc(OC)cc2)CC1 | inactive: 0.077%
COc1ccc(Cl)cc1C(=O)NCC1(N2CCOCC2)CCCCC1 | inactive: 0.059%
O=c1[nH]c2ccccc2n1C1CCN(C(c2cc3ccccc3o2)c2nnnn2C2CCCCC2)CC1 (stereo not drawn) | inactive: 0.028%
O=C(NCC1(N2CCCCC2)CCCCC1)c1ccc(Cl)s1 | inactive: -0.0735%
N#CC1(Nc2ccccc2)CCN(Cc2ccccc2)CC1 | inactive: -0.068%
CCCCn1nnnc1C(c1cccs1)N1CCC(n2c(=O)[nH]c3ccccc32)CC1 (stereo not drawn) | inactive: 0.183%
CCCCn1nnnc1C(CC)N1CCC(n2c(=O)[nH]c3ccccc32)CC1 (stereo not drawn) | inactive: -0.0395%
O=C(NCC1(N2CCCCC2)CCCCC1)c1cccs1 | inactive: -0.0905%
O=C(NCC1(N2CCCCC2)CCCCC1)c1ccc(=O)[nH]c1 | inactive: 0.124%
CCC(c1nnnn1C1CCCC1)N1CCC(n2c(=O)[nH]c3ccccc32)CC1 (stereo not drawn) | inactive: -0.0135%
COc1ccc(C(=O)NCC2(N3CCCCC3)CCCCC2)c(OC)c1OC | inactive: -0.0125%
CC(C)(C)OC(=O)N1CCC(N(C(=O)c2ccccc2)c2ccc(F)cc2)CC1 | inactive: -0.0245%
COc1ccc(C(=O)NCC2(N3CCCCC3)CCCCC2)cc1 | inactive: 0.0585%
Cc1cccc(NC2(C#N)CCN(Cc3ccccc3)CC2)c1 | inactive: -0.059%
CSc1ccccc1C(=O)NCC1(N2CCCCC2)CCCCC1 | inactive: 0.262%
O=C(NCC1(N2CCCCC2)CCCCC1)c1cncc(Br)c1 | inactive: -0.0545%
CCCOc1ccc(C(=O)NCC2(N(C)C)CCCCC2)cc1OC | inactive: 0.0125%

Compound | activation
Cc1ccc(C(=O)NCC2(N(C)C)CCCCC2)o1 | inactive: -0.0465%
COc1ccc(C(c2nnnn2C2CCCC2)N2CCC(n3c(=O)[nH]c4ccccc43)CC2)cc1 (stereo not drawn) | inactive: 0.038%
CN(C)c1cccc(C(=O)NCC2(N3CCCCC3)CCCCC2)c1 | inactive: 0.0015%
COc1ccc(CN(CCCl)CCCl)cc1Cl | inactive: 0.12%
CC(C)c1ccc(NC2CCN(C(=O)OC(C)(C)C)CC2)cc1 | inactive: 0.0525%
CCCCn1nnnc1C(c1ccnc2ccccc12)N1CCC(n2c(=O)[nH]c3ccccc32)CC1 (stereo not drawn) | inactive: 0.003%
CCC(c1nnnn1C(C)(C)C)N1CCC(n2c(=O)[nH]c3ccccc32)CC1 (stereo not drawn) | inactive: 0.0875%
O=C(NCC1(N2CCOCC2)CCCCC1)c1cc(F)c(F)cc1Cl | inactive: 0.0175%
COc1cc(OC)c(C(=O)NCC2(N(C)C)CCCCC2)cc1OC | inactive: -0.0315%
O=C(NCC1(N2CCCCC2)CCCCC1)c1cccc(C(F)(F)F)c1 | inactive: 0.149%
CCCCn1nnnc1C(c1cccc2ccccc12)N1CCC(n2c(=O)[nH]c3ccccc32)CC1 (stereo not drawn) | inactive: -0.054%
CN1CCN(CCOC(=O)C(O)(c2ccccc2)c2ccccc2)CC1 | inactive: -0.0475%
COc1ccc(NC2CCN(C(=O)OC(C)(C)C)CC2)cc1 | inactive: 0.37%
CC(C)c1ccc(C(=O)NCC2(N3CCOCC3)CCCCC2)cc1 | inactive: -0.123%
COc1cc(C(=O)NCC2(N3CCCCC3)CCCCC2)ccc1OC(F)F | inactive: 0.431%
O=C(NCC1(N2CCCCC2)CCCCC1)c1ccc(OC(F)F)cc1 | inactive: -0.0785%
CC(C)(C)n1nnnc1C(c1ccccc1OC(F)(F)F)N1CCC(n2c(=O)[nH]c3ccccc32)CC1 (stereo not drawn) | inactive: -0.0305%
O=C(NCC1(N2CCCCC2)CCCCC1)c1cccc([N+](=O)[O-])c1 | inactive: 0.324%
CSc1ccc(C(=O)NCC2(N3CCOCC3)CCCCC2)cc1 | inactive: 0.022%
O=c1[nH]c2ccccc2n1C1CCN(C(c2ccccc2OC(F)(F)F)c2nnnn2C2CCCC2)CC1 (stereo not drawn) | inactive: 0.233%
CCN1CCC(Nc2ccc(Cl)cc2)CC1 | inactive: 0.139%
